Source: patent publication US20050033035A1, “Mutants of igf binding proteins and methods of production of antagonists thereof” (priority 2001, published 2005)

Amino acid sequences for entries named in this document (tags omitted). Residues count along the entry.
UniProt P24593, 60-112: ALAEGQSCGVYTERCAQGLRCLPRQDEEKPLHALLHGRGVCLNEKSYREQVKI

Target: T1, IGFBP-5 (Homo sapiens, UniProt P24593)
T1 construct: His-tag (N); T7-tag (pET-28a construct only) (N); made in house; host or cells: E. coli BL21
Test: Detection of ligand binding by 15N-HSQC NMR titration
Details: changes in chemical shift for the residue L81
Experimental: Ligand binding was detected by acquiring ^15N—HSQC spectra. All NMR spectra were acquired at 300 K on Bruker DRX600 spectrometer. The samples for NMR spectroscopy were concentrated and dialyzed against PBS buffer. Typically, the sample concentration was varied from 0.3 to 1.0 mM. Before measuring, the sample was centrifuged in order to sediment aggregates and other macroscopic particles. 450 μl of the protein solution were mixed with 50 μl of D2O (5-10%) and transferred to an NMR sample tube. The stock solutions of compounds were 100 mM either in water or in perdeuterated DMSO. pH was maintained constant during the whole titration. The binding was monitored by observation of the changes in the ^15N—HSQC spectrum. Dissociation constants were obtained by monitoring the chemical shift changes of the backbone amide of several amino acid residues (Table 9) as a function of ligand concentration. Data were fit using a single binding site model. In the same way dissociation constants for derivatives of compound 2 are estimated (Table 10).

CC(C)C[C@H](NC(=O)OCC1c2ccccc2-c2ccccc21)C(=O)O [Compound 2D, Nα-FMOC-L-leucine]
Kd: 1090 ± 519 µM
